Where two headings read alike, the source gives them in different places. Each block holds one molecule with its values, some of them ahead of it.
Tests used:
biosimilar AVASTIN® = experiment: Viscosity of aqueous solutions of biosimilar AVASTIN® with viscosity-lowering agents; type: physicochemical
Protocol: (§1) (unless otherwise indicated).
The protein was formulated to contain either 0.25 M phosphate buffer or 0.25 M CSAL.
(§2) Subsequently, the appropriate amount of viscosity-lowering agent was added to result in a final viscosity-lowering agent concentration of 0.15-0.35 M upon reconstitution.
The viscosity-lowering agent(s) were added in an amount sufficient to give concentration upon reconstitution as specified below. In cases of combinations of agents, the concentration of each component is 0.15 M. The protein solutions were then freeze-dried.

biosimilar RITUXAN® = experiment: Viscosity of aqueous solutions of biosimilar RITUXAN® with viscosity-lowering agents; conditions: 25° C.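 Note: absolute viscosity of aqueous antibody solutions determined by microfluidic viscometry (mVROC chip, 50 micron channel) at several flow rates after 5 min equilibration, mean of at least three readings.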
VECTIBIX® = experiment: Viscosity of aqueous solutions of VECTIBIX® with viscosity-lowering agents; type: physicochemical; conditions: 0.25M agent, 25° C., pH 7.0
Excerpt: as §1

REMICADE® [1] = experiment: Monomer content of […]® solutions by size exclusion chromatography; type: physicochemical; conditions: pre-syringe; REMICADE 220-230 mg/mL (per agent), 0.25M agent
Protocol: Biophysical properties of solutions of […]® formulated with 0.25 M CSAA were assessed over 90 days. Samples of […]® formulated with 0.25 M CSAA were prepared as described in Example 1 above.
(§3) Following reconstitution, the viscosity of each solution was measured using the microfluidic viscometer as described in previous examples. The solutions were then back-loaded into 1 mL BD insulin syringes with 27, 29, or 31 gauge fixed needles. The force required to extrude the concentrated […]® solutions was then measured using an Instron at a rate of displacement equivalent to a fluid flow rate of 3 mL/min. The expelled solution was collected from the syringe and analyzed by size-exclusion chromatography.

branded ERBITUX® = experiment: Viscosity of aqueous solutions of branded ERBITUX®; type: physicochemical; conditions: 224 ± 4 mg/mL mAb; phosphate buffer or 0.25M BSAA; 25° C., pH 7.0
Excerpt: as §1

ARZERRA® = experiment: Viscosity of aqueous solutions of ARZERRA® with viscosity-lowering agents; type: physicochemical; conditions: 0.25M agent, 25° C., pH 7.0
Excerpt: as §1

REMICADE® [2] = experiment: Syringe extrusion force of concentrated […]® solutions (Instron); type: physicochemical; conditions: 27, 29, 31 gauge needles, REMICADE 220-230 mg/mL, 0.25M
Protocol: as §3

branded AVASTIN® = experiment: Viscosity of aqueous solutions of branded AVASTIN®; type: physicochemical; conditions: 205 ± 5 mg/mL mAb; phosphate buffer or 0.25M CSAL; 25° C., pH 7.0
Protocol: as §1, §2

HERCEPTIN® = experiment: Viscosity of aqueous solutions of HERCEPTIN® with viscosity-lowering agents; type: physicochemical; conditions: 236 mg/mL HERCEPTIN; […] agent; 25° C.

Molecule: Lactobionic acid-tris
Viscosity (biosimilar AVASTIN®; 219 mg/mL mAb, […] agent, pH 7.0, 25° C., microfluidic): 109 ± 5 cP | Viscosity (biosimilar RITUXAN®; 211 mg/mL mAb, […] agent): 130 ± 1 cP

Molecule: sodium phosphate buffer [PB, reference compound]
Viscosity (VECTIBIX®; 233 ± 4 mg/mL VECTIBIX): 38.7 ± 1.8 cP | Viscosity (VECTIBIX®; 252 ± 3 mg/mL VECTIBIX): 80.3 ± 3.3 cP | Viscosity (VECTIBIX®; 291 ± 3 mg/mL VECTIBIX): 328 ± 12 cP | % Monomer (REMICADE® [1]): 98.8 ± 0.0% | Viscosity (ENBREL®; 212 ± 7 mg/mL ENBREL): 316 ± 11 | Viscosity (ENBREL®; 250 ± 3 mg/mL ENBREL): 439 ± 11 | Viscosity (ENBREL®; 271 ± 0 mg/mL ENBREL): 1120 ± 26 | Branded ERBITUX ® viscosity (branded ERBITUX®): 556 ± 20 cP | Viscosity (biosimilar RITUXAN®; 199 mg/mL mAb, 0.25M): 251 ± 1 cP | Viscosity (biosimilar RITUXAN®; 215 mg/mL mAb, 0.25M): 636 ± 32 cP | Viscosity (biosimilar RITUXAN®; 240 mg/mL mAb, 0.25M): 1270 ± 153 cP | Viscosity (biosimilar RITUXAN®; 202 ± 2 mg/mL RITUXAN, 0.25M agent, pH 7.0): 251 ± 1 | Viscosity (ARZERRA®; 245 ± 4 mg/mL ARZERRA): 120 ± 4 cP | Viscosity (ARZERRA®; 274 ± 10 mg/mL ARZERRA): 349 ± 2 cP | Ability to be expelled through the syringe (REMICADE® [2]; listed as Phosphate Buffer): could not be | Ability to be expelled through the syringe (REMICADE® [2]; listed as phosphate buffer): could not be expelled | Viscosity, Branded AVASTIN ® (branded AVASTIN®): 154 ± 4 cP

Molecule: NCCCC[C@H](N)C(=O)O.O=S(=O)(O)c1ccccc1 [BSAL, benzenesulfonic acid lysine]
Viscosity (biosimilar AVASTIN®; 230 ± 5 mg/mL mAb, pH 7.0, […], 30° C.): 175 ± 7 cP

The next lines start with the values.

Viscosity (biosimilar AVASTIN®; 212 mg/mL mAb, […] agent, pH 7.0, 25° C., microfluidic): 64.5 ± 13.1 cP | Viscosity (biosimilar RITUXAN®; 191 mg/mL mAb, […] agent): 57.5 ± 0.4 cP | Viscosity (HERCEPTIN®): 50.3 ± 0.6 cP
Molecule: CSA-piperazine

Viscosity (biosimilar AVASTIN®; 228 mg/mL mAb, agent […], 25° C.): 59.6 ± 0.5 cP
Molecule: Creatinine Thiamine HCl

— patent US9925263B2, “Liquid pharmaceutical formulations for injection comprising procaine and uses thereof” (EAGLE BIOLOGICS, INC., priority 2013, dated 2018)
